Results on three compounds are retold here after patent US20100004234A1, “SPECIFIC KINASE INHIBITORS” (Kosan Biosciences Incorporated, priority 2004, published 2010).

By UniProt entry, the sequences of proteins in these tests, tags left out.
UniProt P28482, whole entry: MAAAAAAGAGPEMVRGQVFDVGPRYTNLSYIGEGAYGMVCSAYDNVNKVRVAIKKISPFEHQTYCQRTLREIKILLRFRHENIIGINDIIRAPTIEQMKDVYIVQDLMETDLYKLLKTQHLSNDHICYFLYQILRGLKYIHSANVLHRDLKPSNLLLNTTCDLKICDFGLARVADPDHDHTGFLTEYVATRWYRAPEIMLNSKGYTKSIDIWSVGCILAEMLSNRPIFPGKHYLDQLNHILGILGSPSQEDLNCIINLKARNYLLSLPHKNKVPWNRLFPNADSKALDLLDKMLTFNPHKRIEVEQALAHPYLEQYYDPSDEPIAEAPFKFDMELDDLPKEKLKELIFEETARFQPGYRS
UniProt Q02750, whole entry: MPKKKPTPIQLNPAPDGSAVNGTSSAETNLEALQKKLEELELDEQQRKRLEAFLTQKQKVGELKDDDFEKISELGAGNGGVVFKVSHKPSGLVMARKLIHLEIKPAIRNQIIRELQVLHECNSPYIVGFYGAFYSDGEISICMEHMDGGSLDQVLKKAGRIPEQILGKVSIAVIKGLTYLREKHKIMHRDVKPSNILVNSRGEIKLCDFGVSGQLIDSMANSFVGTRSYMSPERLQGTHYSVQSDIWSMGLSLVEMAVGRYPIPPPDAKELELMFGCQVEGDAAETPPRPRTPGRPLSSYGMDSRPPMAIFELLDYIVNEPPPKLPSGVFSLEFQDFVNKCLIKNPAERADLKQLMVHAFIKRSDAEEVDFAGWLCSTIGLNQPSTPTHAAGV

Test [1] concerns COLO829 (Human melanoma, B-Raf V599E). The test can be described thus: Cell proliferation assay (Cell Titer Glo). It counts as cell-based. Particulars: read-out: Cell Line IC50 COLO829, Table 7, V600E B-Raf. (ATP-based viability assays read luminescence as a measure of living cells.)
Test [2] has as its system HT29 (Human colon, B-Raf V599E). Description: Cell proliferation assay (Cell Titer Glo). It counts as cell-based. The following applies: read-out: Cell Line IC50 HT29; Table 7; HT29 human colon cancer, V600E B-Raf.
In another test the target is ERK2 (UniProt P28482). The following applies: Table 7.
The target in a further test is MEK1 (Homo sapiens, UniProt Q02750). Particulars: cited from earlier work.
The subject of test [3] is SKOV3 (ovarian cancer cell line, wild-type B-Raf). Description: Cell proliferation assay. The following applies: read-out: Cell Line IC50 SKOV3, Table 7. The format is cell-based.

As for `C[C@H]1C/C=C\C(=O)[C@@H](O)[C@@H](O)C[C@H]2O[C@@H]2c2cc(OCCCN3CCN(C)CC3)cc(O)c2C(=O)O1`, the IC50 (usually the concentration needed to halve the response being measured) in test [1] amounted to 42 nM; in test [2] it was 210 nM. The “ERK2 Inhibition kinact.” value on ERK2 is listed as 5 ± 1 × 10^−3 sec^−1. In addition, the Ki (in general, the equilibrium dissociation constant of an inhibitor or competing ligand from its target) at ERK2 (read-out: ERK2 Inhibition Ki) was 3100 nM.

Consider `COc1cc(O)c2c(c1)/C=C/C[C@@]1(O)C(C=CC(=O)[C@H]1O)[C@H](C)OC2=O` (some centres unmarked), for which the IC50 at MEK1 was 59 nM.

For `C[C@H]1C/C=C\C(=O)[C@@H](O)[C@@H](O)C[C@H]2O[C@@H]2c2cc(OCCCN3CCOCC3)cc(O)c2C(=O)O1`, the results for the IC50 in test [1], in test [2] and in test [3] were 47 nM, 290 nM and 860 nM, respectively.
